Experimental data: publication PMC12186257, “Serendipitous and Systematic Chemoproteomic Discovery of MBLAC2, HINT1, and NME1‑4 Inhibitors from Histone Deacetylase-Targeting Pharmacophores” (ACS Chemical Biology, 2025)

The chains behind the UniProt entries cited, without tags or fusion partners.
UniProt Q68D91, whole entry: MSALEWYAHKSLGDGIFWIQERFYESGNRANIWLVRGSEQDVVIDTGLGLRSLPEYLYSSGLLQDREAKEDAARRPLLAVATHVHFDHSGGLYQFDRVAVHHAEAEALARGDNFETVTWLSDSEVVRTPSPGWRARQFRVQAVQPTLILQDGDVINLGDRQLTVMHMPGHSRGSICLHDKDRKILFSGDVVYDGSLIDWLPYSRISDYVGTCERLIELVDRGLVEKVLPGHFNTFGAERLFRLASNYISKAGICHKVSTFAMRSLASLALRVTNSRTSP

What was measured:
MBLAC2 = MBLAC2 (Homo sapiens, UniProt Q68D91); experiment: chemoproteomic competition assay (MV4-11/SW620 lysate, iA/iC/iQ beads, MS readout); assay type: binding; details: read-out: apparent dissociation constant (KDapp) MBLAC2; nine-dose competition assay
HDAC = experiment: as above; assay type: binding, human; details: nine-dose competition assay

Kd (MBLAC2): 3.5 µM
SMILES: CC(C)(C)c1ccc(CN(C(=O)CN(Cc2c(F)c(F)c(F)c(F)c2F)S(=O)(=O)c2ccc(F)cc2)c2ccc(C(=O)NO)cc2)cc1
concentration up to which no HDAC target engagement (HDAC): > 30 µM
